This passage reports GI50 results from patent publication US11224609B2, “Mithramycin derivatives having increased selectivity and anti-cancer activity” (University of Kentucky Research Foundation, priority 2017, dated 2022).

The test system of this data set is VCaP prostate cancer cells (TMPRSS2-ERG). The data set is described as follows: 72 h GI50 assay in VCaP. Conditions: read-out: VCaP Prostate Cancer TMPRSS2-ERG GI50, 72 h growth inhibition.

On to “Mithramycin SA Phenylalanine [MTMSA-Phe (4), reference compound]”, for which the 50% growth inhibitory concentration (GI50) amounted to 150 nM.

One may read the GI50 as the concentration that inhibits growth by half.
